The values below come from patent US20050209157A1, “Short bioactive peptides and methods for their use” (priority 2001, published 2005).

What is called CC50 is the concentration that lowers cell viability or growth by half. A higher CC50 goes with better tolerance by the cells.

Series [1] has as its system Pseudomonas aeruginosa 100609. It is filed as cell-based. The settings on record: Table 9; in µg/mL.
Series [2] relates to Pseudomonas aeruginosa H187. It is filed as cell-based. The settings on record: Table 9; in µg/mL.
Series [3] has as its system P. aeruginosa H374. It is filed as cell-based, Pseudomonas aeruginosa. The settings on record: Table 9; in µg/mL.
For series [4], the system named is Pseudomonas aeruginosa 105663. It is filed as cell-based. To be noted: Table 9; in µg/mL.
Series [5] has as its system yeast (Saccharomyces cerevisiae). Description: Antimicrobial assay I, yeast assay in RPMI 1640. Format: cell-based. To be noted: RPMI 1640 media. As for the experimental part:
(§1) The data for the following antimicrobial assay of the peptides have been obtained by making OD measurements in in vitro cell culture experiments with and without added peptide. The protocol used is as follows.
(§2) Absorbance was read at 620 nm after shaking to resuspend cells.
The yeast assay was performed in RPMI 1640 media (pH 7.0 at 25° C.).
(§3) Staph6538 is Staphylococcus aureus ATCC accession number 6538; paerug9027 is Pseudomonas aeruginosa ATCC accession number 9027, yeast is Saccharomyces cerevisiae.

Series [6] can be described thus: in vitro. It is filed as cell-based. To be noted: human, human red blood cells, pH 7, hemolytic assay, concentration at 50% hemolysis, 1 hour at 37° C.; read-out: LD50. As for the experimental part: This hemolytic assay is based upon that presented in Journal of Peptide Research 53: 82-90 (1999). […] All procedures were performed according to safety protocols pertaining to the handling and disposal of human body fluids.
Red blood cells (RBCs) were washed three times with PBS (35 mM phosphate buffer 0.15 M NaCl, pH 7.0). RBCs suspended in PBS (0.4% (v/v); about 10 ml per 15 peptides) were prepared. Suspensions (100 μl) were aliquoted to each sample and control tube. Serially diluted peptide solutions (100 μl) were pipetted into the sample tubes. Negative control tubes contained 100 μl PBS; positive control tubes contained 100 μl 1% Triton-X100 detergent. All tubes were incubated for 1 hour at 37° C. The tubes were removed from the incubator and centrifuged at 1000 g for 5 minutes. Supernatant (100 μl) was pipetted to a 96-well polyvinyl chloride plate. The absorbance at 414 nm (A414) was measured, and used to calculate the percent hemolysis according to the following formula. [formula]

The test system of series [7] is Staphylococcus aureus ATCC 6538. Description: Antimicrobial assay I, MIC by OD measurement. It is filed as cell-based. To be noted: 37° C. for 24 hours, absorbance 620 nm.
Excerpt: as §1
(§4) Cell lines included Staphylococcus aureus ATCC 6538 or 25923, Pseudomonas aeruginosa ATCC 9027 or 27853. Medium used were Antibiotic Medium 3 (Difco), Antibiotic Medium 2 (Difco), and 0.85% saline. Controls used were physiological saline, and gentamycin at 50, 25, 10, 5, 1, and 0.1 ppm.
as §2, §3

The subject of series [8] is Pseudomonas aeruginosa ATCC 9027. Briefly: Antimicrobial assay I, MIC by OD measurement. Format: cell-based. The settings on record: 37° C. for 24 hours, absorbance 620 nm.
Excerpt: as §1, §4, §2, §3

Series [9] can be described thus: in vitro. The settings on record: human, WI38 normal lung fibroblast cells, 24 hours with peptide.
Series [10] has as its system WI38. The settings on record: MTT, 24 hours with peptide; normal fibroblast line.
The subject of series [11] is H1299. Briefly: Anti-cancer assay, MTT, LD50. Format: cell-based. The settings on record: 24 hours with peptide, lung large cell carcinoma. The text has this:
(§5) Numbers are LD50 values (μg/mL).

In series [12] the test system is PC3. Briefly: Anti-cancer assay, MTT, LD50. It is filed as cell-based. The settings on record: 24 hours with peptide, prostate adenocarcinoma.
Excerpt: as §5

Series [13] concerns MCF7. Briefly: Anti-cancer assay, MTT, LD50. Format: cell-based. The settings on record: MCF7 breast adenocarcinoma line, 24 hours with peptide.
Excerpt: as §5

Series [14] concerns HeLaS3. Description: Anti-cancer assay, MTT, LD50. To be noted: 24 hours with peptide, cervical carcinoma. It is filed as cell-based.
Excerpt: as §5

Series [15] concerns Candida albicans ATCC 10231. Briefly: Antimicrobial assay I, modified protocol (tryptic soy broth), MFC. To be noted: minimum fungicidal concentration, Table 4.
Series [16] deals with Stapholococcus aureus ATCC 25923. Description: Antimicrobial assay I, modified protocol (tryptic soy broth), MBC. To be noted: minimum bactericidal concentration, Table 4.
Series [17] relates to Escherichia coli ATCC 25922. The description is as above. To be noted: minimum bactericidal concentration, Table 4.
In series [18] the test system is Pseudomonas aeruginosa ATCC 27853. Described as above. The settings on record: minimum bactericidal concentration, Table 4.
For series [19], the system named is cancer cell lines. Description: Anti-cancer assays, MTT, summary over the cancer cell lines. It is filed as cell-based. The settings on record: X = preferred.
Where [20] appears, read: LD50 WI38, WI38 normal lung fibroblast line, MTT.

Molecules are shown by their SMILES. Values after ≈ are worked out from the molar mass of the structure shown.

As for `CC(C)C[C@H](NC(=O)[C@H](C)NC(=O)[C@H](CC(C)C)NC(=O)[C@H](C)NC(=O)[C@H](CC(C)C)NC(=O)[C@H](CCCCN)NC(=O)[C@H](C)NC(=O)[C@H](CC(C)C)NC(=O)[C@H](CCCCN)NC(=O)[C@H](CCCCN)NC(=O)[C@H](C)NC(=O)[C@H](CC(C)C)NC(=O)[C@H](CCCCN)NC(=O)[C@H](CCCCN)NC(=O)[C@H](CC(C)C)NC(=O)[C@H](CCCCN)NC(=O)[C@H](CCCCN)NC(=O)[C@H](C)NC(=O)[C@H](CC(C)C)NC(=O)[C@H](CCCCN)NC(=O)[C@H](CCCCN)NC(=O)[C@H](C)NC(=O)[C@@H](N)Cc1ccccc1)C(=O)O` [P13 (6)], the “MIC P. aeruginosa Tb 100609” value in series [1] was determined as 16. Also, in [2], the “MIC P. aeruginosa H187” value is on record as 16. Moreover, in series [3], the “MIC P. aeruginosa H374” value came to 16. The “MIC P. aeruginosa Tb 105663” value in series [4] was 16.

In the case of `CC(C)C[C@H](NC(=O)[C@H](C)NC(=O)[C@H](CC(C)C)NC(=O)[C@H](C)NC(=O)[C@H](CC(C)C)NC(=O)[C@H](CCCCN)NC(=O)[C@H](C)NC(=O)[C@H](CC(C)C)NC(=O)[C@H](CCCCN)NC(=O)[C@H](CCCCN)NC(=O)[C@H](C)NC(=O)[C@H](CC(C)C)NC(=O)[C@H](CCCCN)NC(=O)[C@H](CCCCN)NC(=O)[C@H](CC(C)C)NC(=O)[C@H](CCCCN)NC(=O)[C@H](CCCCN)NC(=O)[C@H](C)NC(=O)[C@H](CC(C)C)NC(=O)[C@H](CCCCN)NC(=O)[C@H](CCCCN)NC(=O)[C@H](C)NC(=O)[C@@H](N)Cc1ccccc1)C(=O)O` [P13, reference compound], the “yeast (MIC or MFC)” value in series [5] is listed as “> (> indicates greater than 200 μg/mL)”. Further, in [6], the HC50 at 1 h is 50 µg/mL. Further, in [7], the “staph6538 (MIC)” value was determined as 10 mg/L. For the same compound, the “paerug9027 (MIC)” value in series [8] is recorded as “> (> indicates greater than 200 μg/mL)”.

In the case of `CC(C)C[C@@H](NC(=O)[C@@H](C)NC(=O)[C@@H](CC(C)C)NC(=O)[C@@H](C)NC(=O)[C@@H](CC(C)C)NC(=O)[C@@H](CCCCN)NC(=O)[C@@H](C)NC(=O)[C@@H](CC(C)C)NC(=O)[C@@H](CCCCN)NC(=O)[C@@H](CCCCN)NC(=O)[C@@H](C)NC(=O)[C@@H](CC(C)C)NC(=O)[C@@H](CCCCN)NC(=O)[C@@H](CCCCN)NC(=O)[C@@H](CC(C)C)NC(=O)[C@@H](CCCCN)NC(=O)[C@@H](CCCCN)NC(=O)[C@@H](C)NC(=O)[C@@H](CC(C)C)NC(=O)[C@@H](CCCCN)NC(=O)[C@@H](CCCCN)NC(=O)[C@@H](C)NC(=O)[C@H](N)Cc1ccccc1)C(=O)O` [P67], the HC50 at 1 h in [6] is 40 µg/mL. The CC50 at 24 h is 4 mg/L (≈ 1.58 µM) in series [9] (setting [20]) and 95 mg/L (≈ 37.4 µM) in series [9] (WI38 LD50, MTT, normal fibroblast line).

As to `CC(C)C[C@H](NC(=O)[C@H](C)NC(=O)[C@H](CC(C)C)NC(=O)[C@H](C)NC(=O)[C@H](CC(C)C)NC(=O)[C@H](CCCCN)NC(=O)[C@H](C)NC(=O)[C@H](CC(C)C)NC(=O)[C@H](CCCCN)NC(=O)[C@H](CCCCN)NC(=O)[C@H](C)NC(=O)[C@H](CC(C)C)NC(=O)[C@H](CCCCN)NC(=O)[C@H](CCCCN)NC(=O)[C@H](CC(C)C)NC(=O)[C@H](CCCCN)NC(=O)[C@H](CCCCN)NC(=O)[C@H](C)NC(=O)[C@H](CC(C)C)NC(=O)[C@H](CCCCN)NC(=O)[C@H](CCCCN)NC(=O)[C@H](C)NC(=O)[C@@H](N)Cc1ccccc1)C(=O)O` [SHIVA 10 AC], in series [10], the “WI38 LD50” value turned out to be 57 µg/mL. The CC50 at 24 h in series [9] (setting [20]) is 57 mg/L (≈ 22.5 µM). For the same compound, the “H1299 LD50” value in series [11] is “> (> indicates greater than 1000)”. Moreover, the “PC3 LD50” value in [12] is 83 µg/mL. For the same compound, the “LD50 MCF7” value in [13] is “> (> indicates greater than 1000)”. In series [14], the “HeLaS3 LD50” value is “> (> indicates greater than 1000)”.

As to `CC(C)C[C@H](NC(=O)[C@H](C)NC(=O)[C@H](CC(C)C)NC(=O)[C@H](C)NC(=O)[C@H](CC(C)C)NC(=O)[C@H](CCCCN)NC(=O)[C@H](C)NC(=O)[C@H](CC(C)C)NC(=O)[C@H](CCCCN)NC(=O)[C@H](CCCCN)NC(=O)[C@H](C)NC(=O)[C@H](CC(C)C)NC(=O)[C@H](CCCCN)NC(=O)[C@H](CCCCN)NC(=O)[C@H](CC(C)C)NC(=O)[C@H](CCCCN)NC(=O)[C@H](CCCCN)NC(=O)[C@H](C)NC(=O)[C@H](CC(C)C)NC(=O)[C@H](CCCCN)NC(=O)[C@H](CCCCN)NC(=O)[C@H](C)NC(=O)[C@@H](N)Cc1ccccc1)C(=O)O` [compound 13], in [15], the “MFC Candida A.10231” value was above 50 mg/L. In addition, the “MBC S. aur A.25923” value in [16] stood at 30 mg/L (≈ 11.8 µM). In series [17], the “MBC E. coli A.25922” value worked out at 8 mg/L (≈ 3.15 µM). The “MBC P. aerug A.27853” value in series [18] was found to be 15 mg/L (≈ 5.91 µM).

In the case of `CC(C)C[C@H](NC(=O)[C@H](C)NC(=O)[C@H](CC(C)C)NC(=O)[C@H](C)NC(=O)[C@H](CC(C)C)NC(=O)[C@H](CCCCN)NC(=O)[C@H](C)NC(=O)[C@H](CC(C)C)NC(=O)[C@H](CCCCN)NC(=O)[C@H](CCCCN)NC(=O)[C@H](C)NC(=O)[C@H](CC(C)C)NC(=O)[C@H](CCCCN)NC(=O)[C@H](CCCCN)NC(=O)[C@H](CC(C)C)NC(=O)[C@H](CCCCN)NC(=O)[C@H](CCCCN)NC(=O)[C@H](C)NC(=O)[C@H](CC(C)C)NC(=O)[C@H](CCCCN)NC(=O)[C@H](CCCCN)NC(=O)[C@H](C)NC(=O)[C@H](N)Cc1ccccc1)C(=O)O` [compound 67], in series [15], the “MFC Candida A.10231” value was above 50 mg/L. Further, the “Anti-cancer (preferred peptide)” value in [19] is on record as “X (Preferred anticancer peptides can be selected as having LD50 values of less than or equal to about 25 μg/ml)”. Further, in series [16], the “MBC S. aur A.25923” value was 30 mg/L (≈ 11.8 µM). Also, the “MBC E. coli A.25922” value in [17] was determined as 25 mg/L (≈ 9.85 µM). In series [18], the “MBC P. aerug A.27853” value is 30 mg/L (≈ 11.8 µM).
